Source: publication PMC8035306 (Journal of medicinal chemistry, 2021)

By UniProt entry, the sequences of proteins in these tests, tags left out.
UniProt Q96LA8, whole entry: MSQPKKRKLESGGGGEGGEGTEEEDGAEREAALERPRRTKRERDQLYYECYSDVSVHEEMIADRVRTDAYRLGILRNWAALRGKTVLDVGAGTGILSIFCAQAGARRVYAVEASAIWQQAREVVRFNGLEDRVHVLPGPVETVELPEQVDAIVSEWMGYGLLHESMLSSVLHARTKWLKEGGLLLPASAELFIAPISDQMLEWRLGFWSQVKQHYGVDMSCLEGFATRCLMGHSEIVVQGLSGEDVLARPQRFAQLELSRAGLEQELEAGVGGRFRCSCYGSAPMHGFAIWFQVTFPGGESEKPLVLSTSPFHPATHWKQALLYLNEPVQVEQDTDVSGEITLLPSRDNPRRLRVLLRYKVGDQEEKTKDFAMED

Molecular target: PRMT6 (Homo sapiens, UniProt Q96LA8)
Experiment: PRMT6 radiometric biochemical assay, 2 h preincubation
Details: read-out: PRMT6 IC50

## Cc1cc(C)cc([C@H]2c3cc(C)ccc3NC(=O)CN2C(=O)c2ccc(Br)s2)c1 [(S)-2, 4-(5-bromothiophene-2-carbonyl)-5-(3,5-dimethylphenyl)-7-methyl-1,3,4,5-tetrahydro-2H-benzo[e][1,4]diazepin-2-one]
  IC50: > 50 µM
